From US7851629B2, “Disubstituted phenylpiperidines as modulators of dopamine and serotonin neurotransmission” (NSAB, Filial af Neurosearch Sweden AB, Sverige, priority 2004, dated 2010)

Experiments:
[1] = test system: amphetamine pretreated rats; test: animal or person; conditions: Rattus norvegicus, read-out: ED50 reduction of amphetamine-induced hyper-locomotion
[2] = test system: amphetamine pretreated rats; conditions: rats pretreated with d-amphetamine 1.5 mg/kg i.p.; test compound s.c.; range covers 95% of fits

SMILES | ED50 [1] [µmol/kg] | ED50 reduction of amphetamine-induced hyper-locomotion [2]
CCCN1CCC(c2cccc(F)c2F)CC1 [drawing 20] | 17.1 | –
CCCN1CCC(c2cccc(OC(F)(F)F)c2F)CC1 | 9 | –
CCCN1CCC(c2cccc(Cl)c2Cl)CC1 [drawing 22] | 11 | –
COc1cccc(C2(O)CCN(C)CC2)c1OC | – | inactive
